In US20220267854A1, “EGFR AND ROS1 KINASE IN CANCER” (CELL SIGNALING TECHNOLOGY, INC., priority 2012, published 2022):

How the values were obtained:
[1] = tested on: BaF3 cells expressing myc-tagged neomycin (Neo-Myc); assay: MTS cell growth assay, BaF3 expressing myc-tagged neomycin; format: cell-based; details: FIGS. 9A/9B; 0-1.0 uM; negative control BaF3 neo-myc
[2] = tested on: BaF3 cells transduced with FLT3/ITD; details: FIGS. 9A/9B; 0-1.0 uM; negative control BaF3 FLT3-ITD
[3] = tested on: BaF3 cells expressing FIG-ROS1(L); assay: MTS cell growth assay, BaF3 expressing FIG-ROS1(L); details: FIGS. 9A/9B, 0-1.0 uM, same concentration of each
[4] = tested on: BaF3 cells expressing FIG-ROS1(S); assay: MTS cell growth assay, BaF3 expressing FIG-ROS1(S); details: FIGS. 9A/9B, 0-1.0 uM, same concentration of each

C[C@@H](Oc1cc(-c2cnn(C3CCNCC3)c2)cnc1N)c1c(Cl)ccc(F)c1Cl [crizotinib]
cellular growth response, compared with FIG-ROS1 BaF3 and Karpas 299 cells [1]: less sensitive
cellular growth response, compared with FIG-ROS1 BaF3 and Karpas 299 cells [2]: less sensitive
cellular growth response, TAE-684 compared with crizotinib [3]: more sensitive to TAE-684 than to crizotinib
cellular growth response, TAE-684 compared with crizotinib [4]: more sensitive to TAE-684 than to crizotinib
